Assay results published in US20050239757A1, “Hormone treatment of macular degeneration” (priority 2004, published 2005).

Columns and labels:
[1] = system: serum anti-estrogen IgG antibodies; test: Competition ELISA: absorption of serum IgG anti-estrogen with specific and non-specific antigens; assay type: binding, human; conditions: for Serum anti-estrogen IgG level after absorption: antigen 250 μg/mL, optical density at 405 nm
Method: (§1) Enzyme-linked immunosorbent assay (ELISA) was used for testing antibodies against estrogen and progesterone in the sera of patients with premenstrual asthma and with control subjects. […] Plates were incubated overnight at 4° C. and then washed three times with […] of Tris-buffered saline (TBS) containing 0.05% Tween 20, pH 7.4. […] The optimal dilution of serum was determined by checkerboard dilution and found to be 1:100 for IgG and IgM and 1:2 for IgE. Plates were incubated for 2 h (for IgG and IgM) and overnight (for IgE), and then washed four times with PBS-Tween 20. Alkaline-phosphatase-conjugated goat anti-human IgG, IgM or IgE F(ab′)2 fragment at optimal dilution of 1:700 (IgG); 1:500 (IgM) and 1:250 (IgE) was added to corresponding wells. The plates were then incubated for an additional 2 h at room temperature. After washing five times with TBS-Tween buffer, the enzyme reaction was started by adding 100 μl of para-nitrophenylphosphate in 0.1 mL of diethanolamine buffer (1 mg/ml) containing 1 mM MgCl2 and sodium azide, pH 9.8. The reaction was stopped 45 minutes later with 50 μl of 1 N NaOH. The optical density was read at 405 nm (OD405) with a microtiter reader.
(§2) 100 μl of serum diluent buffer was added to all wells. […] After a 60-minute incubation, 100 μl serum anti-estrogen or anti-progesterone was added to all wells. […] Results were calculated as a percentage of inhibition in antigen-antibody reaction.
(§3) To examine whether antibodies to estrogen or progesterone are specific or cross-reactive, competition ELISA was performed by adding specific and non-specific antigens in liquid phase and examined prevention of serum antibody binding to the antigen in solid phase. […] For IgE anti-estrogen this inhibition by estrogen-BSA was between 54-62%, and with progesterone-BSA from 37-43%. […] This cross-reaction between estrogen and progesterone antibodies may be due to structural similarities between these two hormones.

[2] = system: serum anti-estrogen IgE antibodies; test: Competition ELISA: absorption of serum IgE anti-estrogen with specific and non-specific antigens; assay type: binding, human; conditions: for Serum anti-estrogen IgE level after absorption: antigen 250 μg/mL, optical density at 405 nm
Method: as §1, §2, §3

[3] = antigen added to the liquid phase

human serum albumin [HSA]
Absorption of serum IgG antibodies, in words [1, 3]: did not absorb | Serum anti-estrogen IgG level after absorption ([1]; serum sample 1, before absorption 1.83): 1.81 | Serum anti-estrogen IgG level after absorption ([1]; serum sample 2, before absorption 1.25): 1.19 | Serum anti-estrogen IgG level after absorption ([1]; serum sample 3, before absorption 0.76): 0.78 | Absorption of serum IgE antibodies, in words [2, 3]: did not absorb | Serum anti-estrogen IgE level after absorption ([2]; serum sample 1, before absorption 2.15): 2.11 | Serum anti-estrogen IgE level after absorption ([2]; serum sample 2, before absorption 1.66): 1.59 | Serum anti-estrogen IgE level after absorption ([2]; serum sample 3, before absorption 1.34): 1.21
